{"source": "PubChem BioAssay AID719", "about": "(SRMLSC, 2007)", "note": "Only a part is listed here, and it is no random draw. Calls of active or inactive are those of the source.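 How the source made its calls: active means viability at or below 50% in the single dose screen; inactive means viability above 50%.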"}
{"assay": "antiproliferative effect on LL 47 fibroblasts – human, LL 47 cells, CellTiter-Glo luminescence, primary screen (AID 719);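 further: compound exposure lasted 72 h before the ATP readout; 100% = median luminescence of untreated cell-only wells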", "settings": "LL 47 human lung fibroblast viability, ATP luminescence; at 10 µM; active compounds read low", "in_short": "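Test system: LL 47 human lung fibroblasts; Quantity: 1,150 cells/well; Buffer or medium: IMEM plus 15% FBS; Dosing: tenfold compound dosing solution, DMSO at 0.1%; Timing: overnight cell rest, 72 h compound treatment at 37 °C; Detection: ATP-based CellTiter-Glo luminescent readout; Read-out basis: viability percentage against median untreated-cell control; Controls: cell-only wells, no compound.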"}
{"smiles": "Cc1c2non([O-])c-2c(C)[n+](=O)[n+]1[O-]", "viability": "inactive: 84.8%"}
{"smiles": "Oc1ccccc1CNc1ccccn1", "viability": "inactive: 98.5%"}
{"smiles": "CN1CCCC(OC(=O)C(c2ccccc2)c2ccccc2)C1", "note": "(stereo unspecified)", "viability": "inactive: 90.2%"}
{"smiles": "CCOP(=O)(Nc1ccccc1)OCC", "viability": "inactive: 98.8%"}
{"smiles": "CC1CCN(C(=O)Oc2c(Cl)cc(Cl)c3cccnc23)CC1", "viability": "inactive: 92.6%"}
{"smiles": "O=[N+]([O-])c1cccc2n[nH]nc12", "viability": "inactive: 106%"}
{"smiles": "CCc1nc2c(n1)c1c(non1O)c1c2no[n+]1[O-]", "viability": "active: 12.7%"}
{"smiles": "O=P(Nc1nccs1)(c1ccccc1)c1ccccc1", "viability": "inactive: 94.2%"}
{"smiles": "c1nnnn1CCn1cnnn1", "viability": "inactive: 105%"}
{"smiles": "O=C(OC1CN2CCC1CC2)c1cccc(Cl)c1", "note": "(stereo unspecified)", "viability": "inactive: 107%"}
{"smiles": "COC(=O)c1cc2c(s1)N=C(c1ccccc1)N(C)P2(=O)N1CCOCC1", "note": "(stereo unspecified)", "viability": "inactive: 99.1%"}
{"smiles": "O=P1(Nc2nc3ccc(Cl)cc3s2)COc2ccccc2O1", "note": "(stereo unspecified)", "viability": "inactive: 102%"}
{"smiles": "Cc1cccc(OCC(=O)OC2CN3CCC2CC3)c1", "note": "(stereo unspecified)", "viability": "inactive: 103%"}
{"smiles": "CCOP1(=S)c2c(C)nn(CCC#N)c2N=C(c2ccc(F)cc2)N1C", "note": "(stereo unspecified)", "viability": "inactive: 89.9%"}
{"smiles": "CCOP1(=S)c2c(C)nn(CCC#N)c2N=C(c2ccccc2F)N1C", "note": "(stereo unspecified)", "viability": "inactive: 89.2%"}
{"smiles": "O=P1(Nc2ncccn2)COc2ccccc2OC1", "viability": "inactive: 98.4%"}
{"smiles": "Cc1ccc(OCC(=O)OC2CN3CCC2CC3)cc1", "note": "(stereo unspecified)", "viability": "inactive: 96.4%"}
{"smiles": "O=P1(Nc2ccc(Br)cn2)COc2ccccc2OC1", "viability": "inactive: 102%"}
{"smiles": "Cc1nn(-c2ccccc2)c2c1P(=O)(N1CCOCC1)N(C)C(c1ccccc1)=N2", "note": "(stereo unspecified)", "viability": "inactive: 97.4%"}
{"smiles": "CC1(CBr)Cn2c(nc3ccccc3c2=O)S1", "note": "(stereo unspecified)", "viability": "inactive: 87.3%"}
{"smiles": "O=P1(Nc2ccccn2)COc2ccccc2OC1", "viability": "inactive: 97.3%"}
{"smiles": "CCC(C)N(CC(C)C)C(=S)SC(NC(C)=O)C(Cl)(Cl)Cl", "note": "(stereo unspecified)", "viability": "inactive: 52.1%"}
{"smiles": "COP1(=S)c2c(C)nn(CCC#N)c2N=C(c2ccc(F)cc2)N1C", "note": "(stereo unspecified)", "viability": "inactive: 94.3%"}
{"smiles": "O=C(COc1ccccc1)OC1CN2CCC1CC2", "note": "(stereo unspecified)", "viability": "inactive: 98.1%"}
{"smiles": "ClCCSc1nnc(-c2cccnc2)o1", "viability": "inactive: 101%"}
{"smiles": "O=C(OC1CN2CCC1CC2)C12CC3CC(CC(C3)C1)C2", "note": "(stereo unspecified)", "viability": "inactive: 93.9%"}
